# Test results reported in PubChem BioAssay AID1487 (National Center for Advancing Translational Sciences (NCATS), 2009).
# This is a selection; strong and weak results do not stand in their true shares. Inconclusive results are not listed. Active and inactive are the calls of the source. The call rests on the fitted dose curve; in most records, active means well fitted inhibition curve with a large enough effect in the signal ratio, with a control signal flat (not every such curve was filed as active); inconclusive means small, poorly fitted or top-dose-only effect, or effect the other way, or a change in a side signal; inactive means flat fitted curve, though single readings scatter; the % refers to the signal ratio.
# Assay: qHTS Assay for Modulators of Lamin A Splicing
# Settings: HeLa LMNA splicing GFP/RFP minigene ratio, 48 h; at 46.1 µM (top of the series) unless noted
# On the % scale 0 is the no-effect control and ±100 the full control effect.
row,Compound,"ratio change, negative = inhibition"
1,COP1(=S)c2c(C)nn(CCC#N)c2N=C(c2ccc(F)cc2)N1C (configuration not stated),inactive: 12.3%
2,O=C(COc1ccccc1)OC1CN2CCC1CC2 (configuration not stated),inactive: 3.14%
3,Cc1cc(SC(NC(=O)c2ccccc2)C(Cl)(Cl)Cl)nc(C(C)C)n1 (configuration not stated),inactive: -6.96%
4,Cc1cc(SC(NC=O)C(Cl)(Cl)Cl)ncn1 (configuration not stated),inactive: -5.92% [at 46 µM]
5,Cc1ccc2nc3c(c(C)c2c1)CC(C(Cl)Cl)S3 (configuration not stated),inactive: -13%
6,ClCCSc1nnc(-c2cccnc2)o1,inactive: -8.71%
7,O=[N+]([O-])c1cc([N+](=O)[O-])c(-c2ccn[nH]2)s1,inactive: 17.6%
8,CC(C)NC(=O)NP(=O)(Oc1ccccc1)Oc1ccccc1,inactive: 0.628% [at 46 µM]
9,CCN(CC)C(=S)SC(NC=O)C(Cl)(Cl)Cl (configuration not stated),inactive: 9.18%
10,Cc1c2c(nc3ccccc13)SC(C(Cl)Cl)C2 (configuration not stated),inactive: -17.3%
11,O=C(OC1CN2CCC1CC2)C12CC3CC(CC(C3)C1)C2 (configuration not stated),inactive: 10.8%
12,COc1ccc2nc(NP(=O)(c3ccccc3)c3ccccc3)sc2c1,inactive: -23.7% [at 46 µM]
13,CN(C(=O)Cc1ccc(Cl)c(Cl)c1)[C@@H]1CC[C@]2(CCCO2)C[C@H]1N1CCCC1,inactive: -21.6%
14,Cc1cccc(OCC(=O)OC2CN3CCC2CC3)c1 (configuration not stated),inactive: 0.439%
15,Cc1ccc(NCCc2c([N+](=O)[O-])cc([N+](=O)[O-])cc2[N+](=O)[O-])cc1,inactive: -12.4%
16,COc1cc(C2NCCC3(OCCO3)C2(C)C)cc(OC)c1OC (configuration not stated),inactive: -6.21%
17,O=P(Nc1nccs1)(c1ccccc1)c1nc2ccccc2s1 (configuration not stated),inactive: -8.06%
18,CCOP1(=S)c2c(C)nn(CCC#N)c2N=C(c2ccccc2F)N1C (configuration not stated),inactive: 7%
19,CCOP1(=S)c2c(C)nn(CCC#N)c2N=C(c2ccc(F)cc2)N1C (configuration not stated),inactive: 4.67%
20,CN(C(=O)Cc1ccccc1)[C@@H]1CC[C@]2(CCCO2)C[C@H]1N1CCCC1,inactive: 10.5%
21,O=[N+]([O-])c1ccc2c(c1)nnn2O,inactive: 8.49%
22,Cc1nn(-c2ccccc2)c2c1P(=O)(N1CCOCC1)N(C)C(c1ccccc1)=N2 (configuration not stated),inactive: -1.37%
23,O=P1(Nc2ncccn2)COc2ccccc2OC1,inactive: 22.4%
24,Cc1ccc(OCC(=O)OC2CN3CCC2CC3)cc1 (configuration not stated),inactive: -5.28%
25,O=P1(Nc2ccccn2)COc2ccccc2OC1,inactive: -7.36%
26,Clc1n[nH]nc1-c1nn[nH][15n]1,inactive: -0.0808%
27,CN(C(=O)Cc1ccc(Cl)c(Cl)c1)[C@@H]1CCCC[C@H]1N1CCCC1,inactive: -6.69% [at 46 µM]
